The test system of the experiment is C533S-ODD-luc.

Like-named read-outs stand apart in the source and are kept apart here. Where a SMILES comes first, the peptide text is derived from it. The star is where a group is joined. Cbz = O=C(OCc1ccccc1)*

For the compound `CC(C)C[C@@H](C=O)NC(=O)[C@H](CC(C)C)NC(=O)[C@H](CC(C)C)NC(=O)OCc1ccccc1` [MG132] (Cbz-Leu-Leu-Leu-aldehyde), under “4T1 cells, CoCl2 or proteasome inhibitor MG132, as in FIG. 1B”, the “activation of C533S-ODD-luc compared with wild type ODD-luc” value is “p>0.05 between wild type and mutant ODD-luc expression levels”.

For `[Cl-].[Cl-].[Co+2]` [CoCl2], the “activation of C533S-ODD-luc compared with wild type ODD-luc” value is listed as “significant inductions, similar to wild-type”.

For the origin of these results see patent publication US8968702B2, “Inhibition of HIF-1 activation for anti-tumor and anti-inflammatory responses” (Duke University, priority 2006, dated 2015).
